Earlier results as cited in publication PMC12355554, “Development of novel mitochondrial pyruvate carrier inhibitors for breast cancer treatment” (The Journal of Biological Chemistry, 2025).

Details: no reference given; cited from earlier work

NC(CO)(CO)CO [Tris base]
pKa: 8.07
